The text below walks through data of patent publication US10213438B2, “Alkaloid compounds for treating depression, substance addictions, and indications associated with chronic inflammation” (MyMD Pharmaceuticals, Inc., priority 2014, dated 2019).

By UniProt entry, the sequences of proteins in these tests, tags left out.
UniProt P21397, whole entry, species assumed: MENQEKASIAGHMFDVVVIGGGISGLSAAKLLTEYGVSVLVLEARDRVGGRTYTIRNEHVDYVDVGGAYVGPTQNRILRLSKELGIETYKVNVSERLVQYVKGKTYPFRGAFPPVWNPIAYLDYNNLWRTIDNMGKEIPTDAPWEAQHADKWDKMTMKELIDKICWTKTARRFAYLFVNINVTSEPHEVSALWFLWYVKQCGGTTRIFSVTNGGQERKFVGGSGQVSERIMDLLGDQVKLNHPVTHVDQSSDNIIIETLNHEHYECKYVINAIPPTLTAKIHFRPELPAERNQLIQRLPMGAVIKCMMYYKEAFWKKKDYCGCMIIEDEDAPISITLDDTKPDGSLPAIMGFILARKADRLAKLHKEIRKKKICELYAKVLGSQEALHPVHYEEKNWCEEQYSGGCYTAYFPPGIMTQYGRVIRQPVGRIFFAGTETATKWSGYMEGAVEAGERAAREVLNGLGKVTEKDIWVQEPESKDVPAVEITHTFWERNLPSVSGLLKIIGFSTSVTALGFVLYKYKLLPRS

In the experiment the target is MAO-A (Homo sapiens, UniProt P21397). The experiment is described as follows: MAO-Glo luminescent assay, MAO-A. The experiment is classed as biochemical. Conditions: 1 hour at room temperature, FIG. 5. From the text: This example describes experiments for determining monoamine oxidase (MAO) inhibition for 2-(pyridin-3-yl)-2,3,4,7-tetrahydro-1H-azepine and other alkaloids. MAOs are enzymes located on the outer membrane of mitochondria and are involved in the catabolism of monoamine neurotransmitters. There are two well-characterized isoenzymes: MAO-A, which predominantly catabolizes serotonin and norepinephrine, and MAO-B, which preferentially catabolizes benzylamine and phenylethylamine. Dopamine and tyramine are metabolized by both isoforms.
To detect the activity of MAO, a luminescent method (MAO-Glo Assay kit, from Promega, Cat # V1401) was used. In this method, a MAO substrate (a derivative of beetle luciferin provided in the kit) is mixed with the compound to be tested (in this case, myosmine and control compounds). Then, the MAO enzymes (either A or B, purchased separately) are added to the mixture and incubated with the reaction for 1 hour at room temperature. The MAO enzymes, if not inhibited by the test compound, will convert the substrate into methyl ester luciferin. Finally, a luciferin detection reagent (provided by the kit) is added (20 minutes at room temperature) to stop the MAO reaction and convert methyl ester luciferin into D-luciferin. […] The luminescent signal is measured and recorded using a luminometer. […]

In the case of `C#CCN(C)CCCOc1ccc(Cl)cc1Cl` [clorgyline], the “inhibition of MAO-A (activity curve)” value is “greatly shifted leftward”.
